Yeast mating assay B: variants of the scFv Ab-14

Values reported by Li et al. 2023, doi:10.1038/s41467-023-39022-2 (FLAb copy).

The target is the same throughout: PDVDLGDISGINAS, from the HR2 region of SARS-CoV-2 spike.

The variants keep the heavy chain, the linker and the frameworks of Ab-14 (scFv order VH, a 15-residue (Gly4Ser)3 linker, VL).
VH: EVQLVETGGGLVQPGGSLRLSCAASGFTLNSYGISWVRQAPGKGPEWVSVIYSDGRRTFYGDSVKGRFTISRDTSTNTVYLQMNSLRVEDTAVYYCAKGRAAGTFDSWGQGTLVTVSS
VL: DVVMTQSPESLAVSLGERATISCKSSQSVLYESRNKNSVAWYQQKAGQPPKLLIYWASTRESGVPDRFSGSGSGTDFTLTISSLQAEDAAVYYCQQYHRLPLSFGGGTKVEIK

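The starting antibody came from a phage panning campaign against this peptide. Designed CDR sequences, proposed from the first random library and measured here. Group labels follow the data file (Ctrl: baseline library sampled from a position-specific scoring matrix, with some repeated check sequences; Rand: our label for a block that the file lists under HC and that is probably the random mutants of the ten best first-round binders; GP: Gaussian process model; HC: hill climbing; Gen: genetic algorithm; Gibbs: Gibbs sampling; a sequence that several methods proposed may carry one label only). In AlphaSeq, yeast of one mating type display the scFv and yeast of the other type display the target. Mating (16 h, 30 °C) was followed by selection of diploids and sequencing of their barcodes. Scores were corrected for input abundance and mapped to Kd with protein pairs of known affinity run in the same pool. Mating was done six times.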

Positions count from residue 1 of the parent VL; S25L puts L in place of S.
Variants here have at most six changes.
Each Kd is an estimate from the mating assay, the geometric mean of the replicates in which the pair was seen; lower is stronger.
An entry "no signal" has no value in the source: the pair was not observed among the diploids in any replicate. This suggests poor binding but is not conclusive.
The authors averaged sequences with at least three values out of six and counted those with two or fewer as poor binders.
Nonspecific signal, from three strains lacking the peptide, appeared in 4% of pairings of all light chain designs, centred on 430 nM (5% of these signals below 38 nM); values are not corrected for it. The control count says in how many pairings with the empty strains this scFv gave a signal.
The range of this assay differs from that of the first round, and the authors advise against merging the two.
The parent sequence was in this pool as ten entries: three were never detected, three once, and four in most replicates, with averages from 2.2 nM to 240 nM.

| changes | group | Kd (apparent) | replicates with signal | control signals |
|---|---|---|---|---|
| S25L+L30G+Y31G+W56E+S62Q+Q96D | GP_Gibbs | 770 pM | 6/6 | 2/18 |
| V29F+K36F+W56A | GP_HC | 2.6 nM | 6/6 | 0/18 |
| Q27F+V29Q+S33D+W56S+S58T+T59Q | GP_Gibbs | 1.8 nM | 6/6 | 0/18 |
| S33W+W56E+S62P | Ctrl | 3.3 nM | 6/6 | 0/18 |
| S26C | Ctrl | no signal | 0/6 | 2/18 |
| S25L+S26M+V29N+W56N+T59Q | GP_Gen | 480 pM | 6/6 | 1/18 |
| S25L+S26P+V29E+W56H | GP_Gen | 1.3 nM | 6/6 | 0/18 |
| R60Q+L100C+S103Q | Ctrl | no signal | 0/6 | 0/18 |
| S25Q+S28E+Y31M+W56D | GP_HC | 1.2 nM | 6/6 | 3/18 |
| S28Q+K36A | Ctrl | no signal | 0/6 | 0/18 |
| S25Y+Q27T+V29E+Y31E+S62L | GP_Gibbs | 1.3 µM | 3/6 | 0/18 |
| L100M | Ctrl | 2.6 µM | 1/6 | 0/18 |
| S25L+V29F+S33M+W56N | GP_Gen | 1.6 nM | 6/6 | 0/18 |
| S28V+V29Y+L30P+W56G | GP_HC | 500 pM | 6/6 | 1/18 |
| S25L+Q27M+Y31F+W56N | GP_HC | 840 pM | 6/6 | 0/18 |
| S25L+S26C+V29Q+W56H+S62D | GP_HC | 630 pM | 6/6 | 2/18 |
| Q27I+V29Y+R34E+N37D+W56E+T59Q | GP_HC | 12 nM | 6/6 | 0/18 |
| S26N+E32D+W56N+T59V+R60P+P101W | Ctrl | 19 nM | 6/6 | 0/18 |
| V29T+R34Y | Ctrl | 98 nM | 3/6 | 0/18 |
| K24I+S25A+S26D+V29W+W56G+S103I | GP_HC | 3.4 nM | 6/6 | 3/18 |
| S25L+V29C+S38N+W56D | GP_Gen | 180 pM | 6/6 | 0/18 |
| Q27G+V29Y+Y31E+W56E | GP_HC | 8.3 nM | 6/6 | 0/18 |
| S25V+S33E+W56E | GP_Gen | 670 pM | 6/6 | 0/18 |
| N35P | Ctrl | no signal | 0/6 | 0/18 |
| S25F+R34N+S62M | Ctrl | 8.8 nM | 6/6 | 0/18 |
| R34G+W56H+S62D | GP_HC | 2.4 nM | 6/6 | 2/18 |
| S25L+V29W+W56N+T59Q+Q96D | GP_Gen | 550 pM | 6/6 | 1/18 |
| S25V+V29H+S33Q+W56N | GP_Gen | 890 pM | 6/6 | 1/18 |
| V29D+L30P+W56E | GP_Gen | 1.4 nM | 6/6 | 1/18 |
| S26A+W56Q+S62R | Ctrl | 2.0 nM | 6/6 | 0/18 |
| S25L+S26R+Q27T+L30E+W56S | GP_Gibbs | 810 pM | 6/6 | 0/18 |
| S25I+S33G+W56K+R99H | Ctrl | 5.3 nM | 5/6 | 0/18 |
| L30G+S62Y+L102C | Ctrl | no signal | 0/6 | 0/18 |
| S25L+V29W+W56G+S62V | GP_Gen | 400 pM | 6/6 | 0/18 |
| W56Q+T59C+S103N | Ctrl | 32 nM | 6/6 | 0/18 |
| V29F+W56G+Q96N+P101T | GP_HC | 1.9 nM | 6/6 | 0/18 |
| S25F+Y31G+S33Q+W56D | GP_HC | 410 pM | 6/6 | 3/18 |
| S25M+Y31M+S33H+R34G+W56D+T59L | GP_HC | 910 pM | 6/6 | 2/18 |
| S25M+S26Y+V29E+W56N+T59Q | GP_Gen | 1.4 nM | 6/6 | 0/18 |
| R34F+S62E | Ctrl | 52 nM | 6/6 | 1/18 |
| S25V+S26P+S28G+W56G+T59V | GP_HC | 670 pM | 6/6 | 2/18 |
| S25L+S26P+V29Y+W56S | GP_Gen | 870 pM | 6/6 | 0/18 |
| S25L+S26Q+W56Q+Q96D | GP_Gen | 1.6 nM | 6/6 | 0/18 |
| Q27I+V29Y+R34M+K36P+W56N+A57G | GP_HC | 690 pM | 6/6 | 2/18 |
| W56E+S62Q | GP_Gen | 4.4 nM | 6/6 | 0/18 |
| S26Y+V29I+R34M+N37Y+L102I | Ctrl | no signal | 0/6 | 0/18 |
| S25I+W56N+A57G | GP_Gen | 370 pM | 6/6 | 0/18 |
| S33D+S62V | Ctrl | 28 nM | 4/6 | 0/18 |
| Q27S+V29H+W56S+P101H | Ctrl | 7.7 nM | 5/6 | 0/18 |
| S25F+S28L+S33G+N35T+W56N | GP_HC | 2.3 nM | 6/6 | 2/18 |
| Q27I+W56D+S62D | Ctrl | 9.2 nM | 6/6 | 0/18 |
| S28F+V29Y+W56G | GP_HC | 3.2 nM | 6/6 | 1/18 |
| W56G+S103P | Ctrl | 130 nM | 4/6 | 0/18 |
| S25L+S26R+V29T+L30G+K36P+W56K | GP_HC | 900 pM | 6/6 | 1/18 |
| K24F+S25L+V29W+W56N+T59Q | GP_Gen | 5.8 nM | 6/6 | 0/18 |
| V29D+Y31M+W56M+A57G | Ctrl | 4.2 nM | 6/6 | 0/18 |
| S25F+V29E+L30D+N37W+W56N+E61M | GP_Gibbs | 1.2 nM | 6/6 | 0/18 |
| S25L+V29M+W56N+T59Q+S62D | GP_Gen | 540 pM | 6/6 | 0/18 |
| R34M+H98S | Ctrl | 13 nM | 6/6 | 0/18 |
| Q27I+V29Y+K36E+W56E+T59F+S62Q | Rand | 1.2 nM | 6/6 | 0/18 |
| S25L+L30M+W56D | GP_Gen | 700 pM | 6/6 | 4/18 |
| S25I+R34D | Ctrl | 7.4 nM | 6/6 | 0/18 |
| S26Q+L30P+N35M+W56N+T59L+E61C | GP_Gibbs | 6.2 nM | 6/6 | 2/18 |
| S25L+V29Q+W56H | GP_Gen | 1.5 nM | 6/6 | 1/18 |
| R34K+R99H+S103E | Ctrl | 1.6 µM | 4/6 | 1/18 |
| S28E+N35M+K36L+L102A+S103L | Ctrl | no signal | 0/6 | 0/18 |
| S25L+W56N+T59Q+E61W | GP_Gen | 1.1 nM | 6/6 | 3/18 |
| S25L+S26M+N35M+W56N | GP_Gen | 1.1 nM | 6/6 | 0/18 |
| S25L+S26L+W56G+S62D | GP_HC | 2.1 nM | 6/6 | 0/18 |
| S26P+Q27F+L30Y+E32G+S33D+W56Q | GP_Gibbs | 7.4 nM | 6/6 | 1/18 |

A selection of 7 entries from above:

changes,group,Kd (apparent),replicates with signal,control signals
S26Q+L30P+N35M+W56N+T59L+E61C,GP_Gibbs,6.2 nM,6/6,2/18
R34M+H98S,Ctrl,13 nM,6/6,0/18
S25L+S26L+W56G+S62D,GP_HC,2.1 nM,6/6,0/18
K24F+S25L+V29W+W56N+T59Q,GP_Gen,5.8 nM,6/6,0/18
W56Q+T59C+S103N,Ctrl,32 nM,6/6,0/18
V29D+Y31M+W56M+A57G,Ctrl,4.2 nM,6/6,0/18
R34F+S62E,Ctrl,52 nM,6/6,1/18